Ab-91 heavy chain CDR variants: yeast mating affinities

Data: MIT Lincoln Laboratory AlphaSeq set, Engelhart et al. 2022, doi:10.1038/s41597-022-01779-4, as distributed in FLAb.

Binding partner: SARS-CoV-2 spike HR2 peptide, sequence PDVDLGDISGINAS.

Each scFv is VL, the linker GGGGSGGGGSGGGGS, VH, as in the parent Ab-91, and differs from it in the CDRs of the heavy chain only.
VL: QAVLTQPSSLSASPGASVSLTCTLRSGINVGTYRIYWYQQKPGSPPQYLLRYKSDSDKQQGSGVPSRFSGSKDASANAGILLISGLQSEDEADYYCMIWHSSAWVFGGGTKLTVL
VH: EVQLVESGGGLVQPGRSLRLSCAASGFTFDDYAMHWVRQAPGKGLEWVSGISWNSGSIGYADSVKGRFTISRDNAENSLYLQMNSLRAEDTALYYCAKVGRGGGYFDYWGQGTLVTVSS

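AAYL51 was designed without a model: most single CDR substitutions and a random sample of double and triple ones. The assay is AlphaSeq: two haploid yeast populations carry antibody and antigen on their surface. Binding brings cells together so that they mate, and sequencing counts the barcode pairs among the diploids. The ratio of observed to expected reads was calibrated, replicate by replicate, on BCL2-family standards whose Kd was known from biolayer interferometry. There are three technical replicates.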

Variants are written as CDR1, CDR2 and CDR3 of the heavy chain (limits as in the source). Parent: GFTFDDYAMH, GISWNSGSIGYADSVK, VGRGGGYFDY.
This list gathers variants with a substitution at D107 (VH, numbered from residue 1).
Affinities are written as log10 Kd with Kd in nM; a lower number is a better binder.
"nd" marks a missing value. The strain was present, yet no cells mated with the target were sequenced in that replicate, which points to weak or no binding.
Empty control strains, which show no peptide, gave a signal in 21% of pairings with library AAYL51; the median was 4.54 and 95% of these signals were weaker than 3.26. No background was subtracted. The control count says in how many pairings with the empty strains this scFv gave a signal.

* GFTFDSYAMH | GISPNSGSIGYADSVK | VGRGGGYFCY -> 0.92, 0.95, 0.47 (controls 5 of 9)
* GFTFDDYAMH | GISWNSGSIGYADSVK | VGRGGGVFAY -> 4.49, 5.98, 4.47 (controls 6 of 9)
* GFTFSDYAMH | GISWNSGLIGYADSVK | VGRGGGYFNY -> 5.42, nd, nd (controls 3 of 9)
* GFTFDDYAMH | GISWNSGSIPCADSVK | VGRGGGYFAY -> nd, 4.24, nd (controls 1 of 9)
* GFFFDDYAMH | GISWNRGSIGYADSVK | VGRGGGYFWY -> nd, nd, nd (controls 0 of 9)
* GFTFDDYAMH | GISWNSGSIGYADSVK | VGRGGGYFSY -> 0.68, 0.52, -0.14 (controls 2 of 9)
* GFNFDDYAMH | GISWNWGSIGYADSVK | VGRGGGYFMY -> nd, nd, nd (controls 0 of 9)
* GFTFDDYAMH | GIDWNSGSIGYADSVK | VGRGGGYFKY -> nd, nd, nd (controls 0 of 9)
* GFTFDDPAMH | GISWNSGSIGYADSVK | VGRGGGFFRY -> nd, 4.34, 4.77 (controls 8 of 9)
* GFTFDDYAMH | GISWNSGSIGYCDSVH | VGRGGGYFHY -> nd, nd, nd (controls 0 of 9)
* FFTFDDYAMH | GISWHSGSIGYADSVK | VGRGGGYFRY -> 3.77, nd, nd (controls 1 of 9)
* GFTFDDYAMH | GISWNSGSIGYADSVK | VGRGGGYFTY -> 4.90, nd, nd (controls 2 of 9)
* GFTFDDYAMG | GISWNSGTIGYADSVK | VGRGGGYFLY -> nd, nd, nd (controls 1 of 9)
* GFTFDDYAMH | GISWGSGSIGYADSVK | VGRGGGYFNY -> 3.09, nd, nd (controls 1 of 9)
* GFTFDDYYMH | GISWNSGSIGYADSVK | VARGGGYFEY -> nd, 3.42, nd (controls 1 of 9)
* GFTFDDYAMH | GISWNSGSIGWADSVK | VGRGGGYFVY -> 3.50, nd, nd (controls 1 of 9)
* GFTFDDYAMH | VISWNSGSIGAADSVK | VGRGGGYFPY -> nd, nd, 4.45 (controls 4 of 9)
* GFTFDDYAMH | GISWNSGSIGYADSVK | VGRWAGYFMY -> nd, nd, nd (controls 1 of 9)
* GFLFDDYAMH | GISWNSGSIGYADSVK | VGRGGGYTYY -> nd, nd, nd (controls 0 of 9)
* GFTFDDYAMH | GISWNSGSIGYADHVK | VGRGGQYFFY -> 2.00, 1.98, 1.89 (controls 2 of 9)
* GFTFADLAMH | GISWNSGSIGYADSVK | VGRGGGYFGY -> 4.72, nd, 4.03 (controls 4 of 9)
* GFTFDDYAMH | GISWNSKSIGYADSVK | VGRGGGYFGW -> nd, nd, nd (controls 1 of 9)
* GFTFDDYAMH | GISWNSGTIGYADSVK | KGRGGGYFWY -> 4.11, 4.43, 5.33 (controls 4 of 9)
* GFTFDDYAMH | GISWNSGSINYADSHK | VGRGGGYFNY -> nd, nd, nd (controls 1 of 9)
* GFTFDDYAMH | GWSWNSGSIFYADSVK | VGRGGGYFEY -> nd, nd, nd (controls 0 of 9)
* GFTFDDYAIH | GISWNSGSQGYADSVK | VGRGGGYFHY -> 4.72, nd, nd (controls 4 of 9)
* GFTFDDYAMH | GISWNSGSIGYGDSVK | VGRWGGYFWY -> 1.27, 1.17, 0.42 (controls 0 of 9)
* GFTFDDYAKH | GKSWNSGSIGYADSVK | VGRGGGYFNY -> nd, 5.33, nd (controls 4 of 9)
* CFTFDDYAMH | GISWNSGSIGYWDSVK | VGRGGGYFPY -> 5.03, 4.99, nd (controls 5 of 9)
* GFTFDDYAMH | GIYWNSGSIGYADSVK | VGRGGGYNNY -> 5.29, 5.35, nd (controls 7 of 9)
* GFTDDDYAMH | GISWNSGSIGYADWVK | VGRGGGYFKY -> 4.13, 5.23, nd (controls 4 of 9)
* GFTFDDYAMH | GISWNSGSIGIADSVK | VGRGGGYQNY -> nd, nd, nd (controls 1 of 9)
* GFTFDDYAAH | GISWYSGSIGYADSVK | VGRGGGYFLY -> nd, nd, nd (controls 1 of 9)
* GFTFDDMAHH | GISWNSGSIGYADSVK | VGRGGGYFYY -> nd, 5.71, nd (controls 1 of 9)
* GFTFDDYALH | GISWNSGSIGYADSVK | VGHGGGYFVY -> 4.33, 4.86, 4.47 (controls 8 of 9)
* GFTFDDYAMH | NISWNSGSIGYADSVK | VGRGGGYHEY -> nd, nd, nd (controls 0 of 9)
* GFTFDDYAMH | GISQNSGSIGYADSVK | VCRGGGYFGY -> nd, nd, nd (controls 0 of 9)
* GFTFDDYEMH | GISWNKGSIGYADSVK | VGRGGGYFVY -> nd, 5.12, 3.49 (controls 3 of 9)
* GFTFDDYIMH | GISWNSGSIGYADSVK | VGNGGGYFMY -> nd, nd, nd (controls 0 of 9)
* GFTFDDYAMH | GISWNSLSIGYADSVK | LGRGGGYFTY -> 3.74, nd, nd (controls 0 of 9)
* GFTFDDYAMH | GISWNSGSIGYADSKK | VGRGQGYFEY -> nd, nd, nd (controls 1 of 9)
* GFTFDDYAMH | GINWTSGSIGYADSVK | VGRGGGYFVY -> nd, nd, nd (controls 1 of 9)
* GFTFDHYAMH | GISWNSGSKGYADSVK | VGRGGGYFYY -> 0.58, 0.49, -0.22 (controls 7 of 9)
* GFTFDDYAMH | GISANSGSIGYADSCK | VGRGGGYFYY -> 2.33, 2.05, 1.89 (controls 0 of 9)
* VFTFDDYAMH | GISWNSGSIGYADPVK | VGRGGGYFLY -> 4.30, 5.17, 4.43 (controls 9 of 9)
* GWTFDDYAMH | GISWNSGSIGYADSVK | VGAGGGYFHY -> 4.56, nd, nd (controls 1 of 9)
* GFTMDDYAMH | GISWNSGSRGYADSVK | VGRGGGYFTY -> 0.99, 1.12, 0.42 (controls 1 of 9)
* GFTFDDYAMH | DISWNSGSIGYADSNK | VGRGGGYFTY -> nd, nd, nd (controls 2 of 9)

The first 4 entries again:

- GFTFDSYAMH | GISPNSGSIGYADSVK | VGRGGGYFCY = 0.92, 0.95, 0.47 (controls 5 of 9)
- GFTFDDYAMH | GISWNSGSIGYADSVK | VGRGGGVFAY = 4.49, 5.98, 4.47 (controls 6 of 9)
- GFTFSDYAMH | GISWNSGLIGYADSVK | VGRGGGYFNY = 5.42, nd, nd (controls 3 of 9)
- GFTFDDYAMH | GISWNSGSIPCADSVK | VGRGGGYFAY = nd, 4.24, nd (controls 1 of 9)